The text below walks through data of ChEMBL document CHEMBL4257227, “Deubiquitinase inhibitors and methods for use of the same” (2016).

The target of assay [1] is T1, Ubiquitin carboxyl-terminal hydrolase 5 (Homo sapiens) (UniProt P45974).
T1 sequence (whole entry): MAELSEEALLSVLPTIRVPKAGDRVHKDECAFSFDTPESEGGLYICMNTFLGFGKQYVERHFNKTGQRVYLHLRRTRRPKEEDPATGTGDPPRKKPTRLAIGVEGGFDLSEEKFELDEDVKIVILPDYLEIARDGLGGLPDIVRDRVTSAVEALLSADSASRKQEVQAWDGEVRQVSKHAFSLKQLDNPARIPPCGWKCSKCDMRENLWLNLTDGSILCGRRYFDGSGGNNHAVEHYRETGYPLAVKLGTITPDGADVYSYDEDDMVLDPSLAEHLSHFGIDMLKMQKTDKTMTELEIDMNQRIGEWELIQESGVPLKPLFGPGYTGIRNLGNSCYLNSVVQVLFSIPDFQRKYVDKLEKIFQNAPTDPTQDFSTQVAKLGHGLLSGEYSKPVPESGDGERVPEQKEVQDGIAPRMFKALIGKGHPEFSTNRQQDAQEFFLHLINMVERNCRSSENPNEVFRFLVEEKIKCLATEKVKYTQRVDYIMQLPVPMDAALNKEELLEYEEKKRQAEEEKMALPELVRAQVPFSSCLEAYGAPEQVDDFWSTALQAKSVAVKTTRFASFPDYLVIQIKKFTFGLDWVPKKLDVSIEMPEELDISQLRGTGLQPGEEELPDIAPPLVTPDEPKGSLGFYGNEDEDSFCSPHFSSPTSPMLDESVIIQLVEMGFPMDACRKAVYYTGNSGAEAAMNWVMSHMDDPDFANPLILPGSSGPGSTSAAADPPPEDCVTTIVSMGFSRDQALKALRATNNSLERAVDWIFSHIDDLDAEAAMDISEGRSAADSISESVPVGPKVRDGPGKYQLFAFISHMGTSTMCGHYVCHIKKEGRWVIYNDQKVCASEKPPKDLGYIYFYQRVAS
Kind of assay: Inhibition of USP5 in Vemurafenib sensitive human A375 cells.

Assay [2] concerns the target T1, Ubiquitin carboxyl-terminal hydrolase 5 (Homo sapiens). Kind of assay: Inhibition of USP5 in Vemurafenib resistant human A375 cells.

Structures are written as SMILES. Activity calls are given as the source filed them. No cut-off for these calls is given here.

Consider `CCCS(=O)(=O)Nc1ccc(F)c(C(=O)c2c[nH]c3ncc(-c4ccc(Cl)cc4)cc23)c1F` [VEMURAFENIB], for which, in assay [1], the inhibition result is “Active”. Further, the inhibition entry in assay [2] was “inactive”.
